# Measured affinities in a library of Ab-95 light chain variants

Binding partner: SARS-CoV-2 spike HR2 peptide, sequence PDVDLGDISGINAS.

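The parent was found by panning a naive human phage display library on the peptide. Variants in AAYL52 differ from the parent at up to three CDR positions; double and triple changes were sampled at random. The scFvs were displayed on barcoded MATa yeast, the peptide on MATalpha yeast. After mating in shaken culture at 30 °C for 16 h, diploids were selected and their barcode pairs sequenced. The ratio of observed to expected reads was calibrated, replicate by replicate, on BCL2-family standards whose Kd was known from biolayer interferometry. The assay was run in three technical replicates.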

Ab-95 is the parent antibody, in scFv form: VH, then three GGGGS repeats, then VL. The heavy chain is unchanged in all variants.
VH: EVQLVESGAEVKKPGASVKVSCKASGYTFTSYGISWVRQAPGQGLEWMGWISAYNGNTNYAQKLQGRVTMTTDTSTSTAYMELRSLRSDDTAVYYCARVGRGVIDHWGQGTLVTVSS
VL: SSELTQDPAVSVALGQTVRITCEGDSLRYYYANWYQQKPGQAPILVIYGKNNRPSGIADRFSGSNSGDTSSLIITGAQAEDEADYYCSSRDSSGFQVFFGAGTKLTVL

Changes read parent residue, position, new residue, counted from the first residue of the VL shown. Each Kd is an estimate from the mating assay, the geometric mean of the replicates in which the pair was seen; lower is stronger. "no signal" means that the variant was in the library but no mating with the target was seen in any replicate; the authors take this as a sign of poor binding, and no number exists. For reference, the parent read 200 nM as the reference entry and 180 nM as a member of this library. Three control strains display no target. For library AAYL52, 28% of the pairings with them gave a signal, with a median of 8.2 µM and one signal in twenty below 800 nM, so weak values seen in few replicates may be background.

changes,apparent Kd,replicates with signal
E23P K50E S92D,260 nM,3/3
P54E S92F Q96R,3.9 µM,2/3
N51K N52Y F98Q,48 µM,1/3
Y31H P54F Q96S,900 nM,3/3
P54V S55D Q96N,57 nM,3/3
Y31V S89E S92L,470 nM,3/3
Y30M D91C S93L,750 nM,2/3
S26R N51A,1.6 µM,1/3
D25F G49I R90I,55 µM,1/3
L27K S89A D91L,no signal,0/3
S26H R53D S89W,no signal,0/3
R28C Y29S V97F,3.5 µM,3/3
K50G S93R,46 nM,3/3
D25H G49N F98N,3.8 µM,1/3
L27G P54F S89L,24 µM,2/3
E23N G24C S26L,no signal,0/3
N33D N52P S89Q,15 µM,2/3
L27S N33I S89K,1.3 µM,2/3
L27C R53V,no signal,0/3
L27Y S93V,10 µM,1/3
N33K G49P D91K,21 µM,1/3
Y30M A32W N33H,no signal,0/3
L27Q S92Y F95I,22 µM,3/3
S26H Y30C Q96E,260 nM,3/3
G24M R90A Q96R,10 µM,2/3
Y29R Y31C,67 nM,3/3
G24F N33P G49M,270 µM,1/3
S88M S93R,300 nM,3/3
E23P R28I R90D,4.4 µM,1/3
G24F A32G G94C,55 µM,1/3
S55V R90V D91H,51 nM,3/3
R28G Y29Q N52P,no signal,0/3
E23P N52C S88T,160 µM,1/3
S88I S89E F98M,410 nM,3/3
S26F Y31C S55L,210 nM,3/3
P54D S88K S89T,34 µM,2/3
D25R N52R S55M,2.7 µM,3/3
Y31S K50E R90T,no signal,0/3
S88Y R90D F98H,no signal,0/3
S26P Y29T N52L,290 nM,3/3
S93D F95C Q96K,4.1 µM,1/3
E23F G24D,890 nM,1/3
S26A Y30K S55K,97 nM,3/3
G24Q N33K R53N,1.8 µM,1/3
N33K S55L V97T,no signal,0/3
S88Y S93G F95C,1.2 µM,2/3
L27Q P54G F98P,3.4 µM,2/3
L27T Y30F Y31P,620 nM,3/3
Y29A Y31D V97M,3.1 nM,3/3
G49W F95E V97R,30 µM,2/3
G24I S55E V97P,12 µM,3/3
Y30D G49S G94V,210 nM,3/3
L27M Y29R P54D,no signal,0/3
E23G G24R N51H,4.4 µM,1/3
D25Y S89L R90L,160 nM,3/3
E23Y Y30V Y31W,640 nM,3/3
S26N R53G S92W,7.5 µM,1/3
Y29P Y31T G49I,no signal,0/3
A32V N33K R53P,550 nM,2/3

The 4 strongest on average among those seen in every replicate, once more:

changes	apparent Kd	replicates with signal
Y29A Y31D V97M	3.1 nM	3/3
K50G S93R	46 nM	3/3
S55V R90V D91H	51 nM	3/3
P54V S55D Q96N	57 nM	3/3

Data: MIT Lincoln Laboratory AlphaSeq set, Engelhart et al. 2022, doi:10.1038/s41597-022-01779-4, as distributed in FLAb.